In US20100227876A1 (priority 2009, published 2010):
Where two headings read alike, the source gives them in different places.

How the values were obtained:
male Sprague-Dawley rats = experiment: Colorectal distension assay (CRD), visceral pain model, nociceptive threshold; assay type: in vivo, rat; conditions: fentanyl 0.012 mg/kg; for mean M.P.E.: saline pretreatment, spiradoline 0.3 mg/kg or both SC
rats = conditions: cited from earlier work

**Q.** With `CN(C(=O)Cc1ccc(Cl)c(Cl)c1)C1CCC2(CCCO2)CC1N1CCCC1` (centres unmarked) as the compound, how does the “mean M.P.E.” value (male Sprague-Dawley rats; 15-minute test) read?
**A.** Its value is 22%.

**Q.** And the “mean M.P.E.” value (male Sprague-Dawley rats; 30-minute test)?
**A.** Its value is 3%.

**Q.** And the M.P.E. score (male Sprague-Dawley rats; β-FNA 8 mg/kg SC 24 hrs pretreatment, spiradoline 0.3 mg/kg or both, 15-minute test)?
**A.** The M.P.E. score was 4%.

**Q.** What about the “change of ANC after n-BNI” value (rats; CWTF, prior results) of the same compound?
**A.** Its value is “reduced ANC”.

**Q.** What about the “change of ANC after β-FNA” value (rats; CWTF, prior results) of the same compound?
**A.** The value was “without a significant change”.

**Q.** What about the “M.P.E. (maximal percent effect, antinociception)” value (rats; n-BNI 10 mg/kg SC 48 hrs pretreatment, F 0.018 mg/kg or Sp 1.0 mg/kg SC 15 min prior) of the same compound?
**A.** Its value is 13%.

**Q.** What about the “M.P.E. (maximal percent effect, antinociception)” value (rats; n-BNI 10 mg/kg SC 48 hrs pretreatment, F 0.018 mg/kg or Sp 1.0 mg/kg SC 15 min prior, listed as Sp) of the same compound?
**A.** The value was 13 +/− 5%.

**Q.** What about the “M.P.E. (maximal percent effect, antinociception)” value (rats; saline pretreatment SC 24 hrs, F 0.018 mg/kg or Sp 1.0 mg/kg SC 15 min prior to testing) of the same compound?
**A.** The value was 77%.

**Q.** What about the “M.P.E. (maximal percent effect, antinociception)” value (rats; saline pretreatment SC 24 hrs, F 0.018 mg/kg or Sp 1.0 mg/kg SC 15 min prior to testing, listed as Sp) of the same compound?
**A.** Its value is 77 +/− 8%.

**Q.** What about the “M.P.E. (maximal percent effect, antinociception)” value (rats; β-FNA 8 mg/kg SC 24 hrs pretreatment, F 0.018 mg/kg or Sp 1.0 mg/kg SC 15 min prior) of the same compound?
**A.** Its value is 67%.

**Q.** What about the “M.P.E. (maximal percent effect, antinociception)” value (rats; β-FNA 8 mg/kg SC 24 hrs pretreatment, F 0.018 mg/kg or Sp 1.0 mg/kg SC 15 min prior, listed as Sp) of the same compound?
**A.** The value was 67 +/− 12%.
